## scFv variants of Ab-95 (light chain) against a SARS-CoV-2 spike peptide

Source: Engelhart et al. 2022 (doi:10.1038/s41597-022-01779-4), MIT Lincoln Laboratory and A-Alpha Bio; data file from the FLAb repository.

All variants were tested on one target, the spike HR2 peptide PDVDLGDISGINAS (SARS-CoV-2).

Parent: Ab-95, a human scFv built as VH, the linker GGGGSGGGGSGGGGS, VL. Only the CDRs of the light chain vary.
VH: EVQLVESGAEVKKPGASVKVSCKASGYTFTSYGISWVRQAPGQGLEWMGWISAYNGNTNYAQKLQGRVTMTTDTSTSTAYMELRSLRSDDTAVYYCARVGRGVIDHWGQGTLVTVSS
VL: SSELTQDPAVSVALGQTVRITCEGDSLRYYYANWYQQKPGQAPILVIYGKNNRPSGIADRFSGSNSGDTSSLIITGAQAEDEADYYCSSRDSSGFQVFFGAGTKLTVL

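The parent was found by panning a naive human phage display library on the peptide. Variants in AAYL52 differ from the parent at up to three CDR positions; double and triple changes were sampled at random. The scFvs were displayed on barcoded MATa yeast, the peptide on MATalpha yeast. Mating (16 h, 30 °C) was followed by selection of diploids and sequencing of their barcodes. Read counts were normalised to the haploid input and turned into Kd by a linear fit to BCL2-family pairs of known affinity, for each replicate. The assay was run in three technical replicates.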

Sequences are complete VL domains.
This list gathers variants with a substitution at Q96 (VL, numbered from residue 1).
Affinities are written as log10 Kd with Kd in nM; a lower number is a better binder.
A mean of the replicates is given; it leaves out those without a signal.
An entry "not detected" has no value in the source: the pair was not observed among the diploids in any replicate. This suggests poor binding but is not conclusive.
Order: sorted from the lowest average up, undetected variants last.
As a blank, each scFv also met three strains without target: over library AAYL52, 28% of these pairings were detected, typically at 3.91 and seldom below 2.90.
In this assay the parent's reference entry averaged 2.31; its copy inside this library read 2.25.

VL,mean log10 Kd (nM),detected
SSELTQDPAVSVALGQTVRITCEGDSLRSYYANWYQQKPGQAPILVIYGKNNRPSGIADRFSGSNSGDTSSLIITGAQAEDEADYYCASRDSSGFYVFFGAGTKLTVL,1.37,3/3
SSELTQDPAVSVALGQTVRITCEGDSLRYYQANWYQQKPGQAPILVIYGKSNRPSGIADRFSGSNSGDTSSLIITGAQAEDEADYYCSSRDSSGFHVFFGAGTKLTVL,1.40,3/3
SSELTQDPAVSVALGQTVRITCEGDSLRYYYQNWYQQKPGQAPILVIYGKNNRPSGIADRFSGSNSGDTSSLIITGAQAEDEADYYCYSRDSSGFHVFFGAGTKLTVL,1.72,3/3
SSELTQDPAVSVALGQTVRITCESDSLRYYNANWYQQKPGQAPILVIYGKNNRPSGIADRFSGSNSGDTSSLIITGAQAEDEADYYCSSRDSSGFAVFFGAGTKLTVL,2.07,3/3
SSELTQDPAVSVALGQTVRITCEGDSVRYAYANWYQQKPGQAPILVIYGKNNRPSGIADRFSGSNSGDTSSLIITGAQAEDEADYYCSSRDSSGFSVFFGAGTKLTVL,2.18,3/3
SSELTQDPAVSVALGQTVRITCEGDPLRYYYANWYQQKPGQAPILVIYGKNNRFSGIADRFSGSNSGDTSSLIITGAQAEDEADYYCSSRDSSGFFVFFGAGTKLTVL,2.58,3/3
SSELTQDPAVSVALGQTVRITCEGDSLVYYYANWYQQKPGQAPILVIYGKNNRPSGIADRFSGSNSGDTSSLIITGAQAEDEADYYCSSRDSSGFFWFFGAGTKLTVL,2.89,3/3
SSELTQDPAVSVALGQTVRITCEGDSLRYYYANWYQQKPGQAPILVIYGKNNMPSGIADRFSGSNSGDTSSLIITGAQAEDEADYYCSSRDSSGFWVFFGAGTKLTVL,2.89,1/3
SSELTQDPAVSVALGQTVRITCEGDSLRYYYVNWYQQKPGQAPILVIYGKNNRPSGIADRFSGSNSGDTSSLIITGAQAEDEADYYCSSRDSVGFHVFFGAGTKLTVL,2.92,3/3
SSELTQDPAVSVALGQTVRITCEGDSLRYYYANWYQQKPGQAPILVIYGKNNRPSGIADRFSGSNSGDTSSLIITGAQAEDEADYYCSSRDNSGFHYFFGAGTKLTVL,2.93,1/3
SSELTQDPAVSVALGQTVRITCEGDGLRYYYANWYQQKPGQAPILVIYGKNNRPSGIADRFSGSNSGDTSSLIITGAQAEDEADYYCSSRDSSGFKVFFGAGTKLTVL,3.01,3/3
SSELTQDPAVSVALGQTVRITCEGDSVRYYYANWYQQKPGQAPILVIYAKNNRPSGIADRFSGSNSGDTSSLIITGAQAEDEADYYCSSRDSSGFHVFFGAGTKLTVL,3.50,2/3
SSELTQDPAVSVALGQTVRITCEWDSLGYYYANWYQQKPGQAPILVIYGKNNRPSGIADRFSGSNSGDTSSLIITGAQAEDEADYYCSSRDSSGFPVFFGAGTKLTVL,3.77,2/3
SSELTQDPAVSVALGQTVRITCEGDTLEYYYANWYQQKPGQAPILVIYGKNNRPSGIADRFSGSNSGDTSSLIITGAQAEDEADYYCSSRDSSGFVVFFGAGTKLTVL,3.84,3/3
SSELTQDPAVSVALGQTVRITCFGDSTRYYYANWYQQKPGQAPILVIYGKNNRPSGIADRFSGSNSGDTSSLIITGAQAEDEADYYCSSRDSSGFAVFFGAGTKLTVL,3.98,2/3
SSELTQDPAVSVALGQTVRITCEGDSLRYYYHNWYQQKPGQAPILVIYGKNNRPSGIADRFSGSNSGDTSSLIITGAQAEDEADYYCSSRDSSGCYVFFGAGTKLTVL,4.69,2/3
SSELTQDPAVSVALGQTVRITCEQDSLRYYYANWYQQKPGQAPILVIYGKNNPPSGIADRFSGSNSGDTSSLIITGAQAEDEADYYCSSRDSSGFCVFFGAGTKLTVL,5.28,1/3
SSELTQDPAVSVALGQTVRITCEGDSLRYYYANWYQQKPGQAPILVIYCKNNRPSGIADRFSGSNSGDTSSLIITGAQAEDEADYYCFSRDSSGFMVFFGAGTKLTVL,not detected,0/3